We go through 8 compounds from ChEMBL document CHEMBL5537119 (Eur J Med Chem, 2024).

For assay [1], the species on record is Homo sapiens. In words: Selectivity index, ratio of IC50 for inhibition of human recombinant HDAC2 to IC50 for inhibition of human recombinant HDAC4.
For assay [2], the species on record is Homo sapiens. In words: Selectivity index, ratio of IC50 for inhibition of human recombinant HDAC6 to IC50 for inhibition of human recombinant HDAC4.
Assay [3] is filed under the species Homo sapiens. In words: Selectivity index, ratio of IC50 for inhibition of human recombinant HDAC8 to IC50 for inhibition of human recombinant HDAC4.

Some results are limits rather than exact numbers.

Take `O=C(NCCc1c[nH]c2ccccc12)c1ccc(-c2noc(C(F)(F)F)n2)cc1`: the Ratio IC50 in the assay listed under Homo sapiens [1], in the assay filed under Homo sapiens [2] and in the assay filed under Homo sapiens [3] was greater than 139 throughout.
`CN(C)c1ccc(CNC(=O)c2ccc(-c3noc(C(F)(F)F)n3)cc2)cc1`: the Ratio IC50 in the assay filed under Homo sapiens [1], in the assay filed under Homo sapiens [2] and in the assay filed under Homo sapiens [3] was greater than 108 throughout.
Regarding `CN(C(=O)c1ccc(-c2noc(C(F)(F)F)n2)cc1)c1ccccc1`, the Ratio IC50 was greater than 158 in the assay filed under Homo sapiens [1], 31 in the assay listed under Homo sapiens [2] and 114 in the assay listed under Homo sapiens [3].
For `CCN(CC)CCN(C)C(=O)c1ccc(-c2noc(C(F)(F)F)n2)cc1` the same measures were 250, 85 and 55.
In the same order, the values of `O=C(Nc1cnc2ccccc2c1)c1ccc(-c2noc(C(F)(F)F)n2)cc1` are 18, 18 and 18.
In the same order, the values of `O=C(NOCc1coc(-c2ccccc2)n1)c1ccc(-c2noc(C(F)(F)F)n2)cc1` are greater than 847, greater than 847 and greater than 847.
In the case of `CCN(CC)CCCCNC(=O)c1ccc(-c2noc(C(F)(F)F)n2)cc1`, the Ratio IC50 in the assay listed under Homo sapiens [1] was found to be 183; in the assay filed under Homo sapiens [2], 40; in the assay filed under Homo sapiens [3], 48.
In the same order, the values of `CN1CCN(C(=O)c2ccc(-c3noc(C(F)(F)F)n3)cc2)CC1` are 68, 47 and 14.
